Source: US20190345536A1, “DETECTION METHOD FOR CHROMOSOMAL ABNORMALITIES AND METHOD FOR EVALUATING INDUCIBILITY” (Sumitomo Chemical Company, Limited, priority 2016, published 2019)

How the values were obtained:
[1] = from known documents (Kirkland 2016; Lasne 1984; Aardema 2006); cited from earlier work
[2] = tested on: human iPS cell-derived T lymphocyte; assay: In vitro micronucleus test using human iPS cell-derived T lymphocyte (Example 2); conditions: iPS cell line 12; 33 hr treatment with CytoB; CPA 3 hr with 1% S9; doses of Table 3; Fisher's exact test

Structure (SMILES): CN(N=O)C(=N)N[N+](=O)[O-]
- judgment result expected from known information (in vitro micronucleus test) [1]: positive
- judgment result obtained in this Example (in vitro micronucleus test) [2]: positive
